Screening data: PubChem BioAssay, Broad Institute
The list is not random: actives were taken first. Their share in the collection is about 2.8%.
esBAF inh – inhibitors of esBAF chromatin remodeling in mouse ES cells; reporter increase, % at 12.5 µM; Bmi1-luciferase knock-in reporter, 24 h; 100% = twice the neutral-well signal; actives 2% (n = 350,000); in the data active = activation above about 40%; inconclusive = no clear call, values can overlap the other calls;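 note: 0% = median of the plate's neutral control wells and 100% = double that signal; a rise in the Bmi1 reporter signal indicates esBAF inhibition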
Wnt bcat act – activates Wnt/beta-catenin signaling in a reporter cell assay; activation, % at 9.35 µM; AID 743398; actives 1.2% (n = 300,000); activator, plate reader; in the data active = activation above about 30%, passing the limit was not always enough; inconclusive = no clear call, values can overlap the other calls;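 note: 0% = neutral control wells and 100% = positive control wells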
UUG fidelity – yeast start codon fidelity modulation | S. cerevisiae UUG-firefly luciferase reporter, luminescence/redox ratio | activity score, % at 18.7 µM | 350,000 tested, 0.13% active;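 active = replicate mean at a twofold rise or more, about +100% in these data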;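 also: firefly luciferase made from a UUG start codon reports start codon fidelity; reporter light over untreated wells divided by growth signal over untreated wells; some hits fall short of that in this replicate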
MITF act – increases MITF-driven TRPM1 promoter luciferase signal; SK-MEL-5 TRPM1-promoter luciferase, 24 h; % of positive control, neutral wells = 0; activation, % at 12.5 µM; actives 0.75% (n = 300,000); AID 588334;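 active = mean activation of at least 80% with every replicate also reaching 80%; inconclusive = mean reaches 80% but some replicate falls short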;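 note: 0% = neutral control wells and 100% = parthenolide positive control wells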
miR122 inh – blocks miR-122 activity in Huh7 sensor cells; Huh7 miR-122 Renilla luciferase sensor, 48 h; neutral wells = 0, positive control = 100; activation (reporter increase), % at 12.5 µM; actives 0.3% (n = 340,000); AID 602342;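 active = mean replicate activation score at least 90 and every replicate individually at or above 90; inconclusive = only one of the two criteria met; inactive = neither criterion met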;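 note: higher luciferase means less miR-122 activity so hits act as miR-122 inhibitors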
PglD inh – blocks C. jejuni PglD acetyltransferase activity; purified PglD enzyme, DTNB colorimetric CoA detection; inhibition, % at 12.5 µM; actives 0.098% (n = 360,000); in the data active = inhibition above about 16%, passing the limit was not always enough; inconclusive = no clear call, values can overlap the other calls
An asterisk follows results filed as active; ? = inconclusive; . = no result; [ ] = dose if it differs, or a comment.

1	Cc1[nH]nc(N=CC2=C(O)CC(c3ccco3)CC2=O)c1-c1ccccc1 (stereo not drawn)
2	CCCCCc1ccc2cc(C#N)ccc2n1
3	CCCCCCc1ccc(-c2ccc(C#N)cc2)cc1
4	CCOC(=O)c1c(NCC2CCCO2)c2ccccc2[nH]c1=O (stereo not drawn)
5	O=C(Cc1c(O)c2ccccc2[nH]c1=O)NC1CCCCCC1
6	O=C(NCC1CCCO1)c1c(O)c2ccccc2[nH]c1=O (stereo not drawn)
assay / compound	1	2	3	4	5	6
esBAF inh	0.7	47.9*	.	.	2.6	50.8*
Wnt bcat act	9.7	0.6	3.6	.	0.2	.
UUG fidelity	-4.0	-4.5	.	.	.	-3.4
MITF act	1.8	.	.	39.7	1.1	.
miR122 inh	1.8	-4.0	.	-6.5	1.0	-3.2
PglD inh	-0.6	2.6	.	.	.	-7.3

7	O=C(NC1CCCCCC1)c1c(O)c2ccccc2[nH]c1=O
8	O=c1[nH]c2ccccc2c(O)c1O
9	C[C@@H]1CN([C@H](C)CO)C(=O)c2cc(-c3cccnc3)cnc2O[C@H]1CN(C)C(=O)NC1CCCC1
10	C[C@H](CO)N1C[C@H](C)[C@H](CN(C)S(=O)(=O)c2cn(C)cn2)Oc2ccc(NC(=O)C3CCCCC3)cc2C1=O
11	Cc1noc(C)c1S(=O)(=O)Nc1ccc2c(c1)C(=O)N([C@@H](C)CO)C[C@H](C)[C@@H](CN(C)C(=O)NC(C)C)O2
12	COc1ccc(-c2nnc(SCC(C)C)o2)cc1
assay / compound	7	8	9	10	11	12
esBAF inh	45.6*	-4.3	-6.7	3.5	-3.6	.
Wnt bcat act	.	-1.1	.	.	.	42.4*
UUG fidelity	-0.1	20.7	0.2	5.8	8.1	-5.6
MITF act	98.9*	-14.0	.	.	.	57.4
miR122 inh	.	0.8	0.6[16.7 µM]	-0.6[16.7 µM]	3.3[16.7 µM]	6.1
PglD inh	1.8	32.4*	1.6	1.5	-0.7	-2.2

13	COc1ccccc1C(=O)Nn1cnc2ccccc2c1=O
14	C[C@@H]1CN([C@H](C)CO)C(=O)c2cc(N(C)C)ccc2O[C@@H](C)CCCCO[C@@H]1CN(C)C(=O)Nc1ccc(C(F)(F)F)cc1
15	Cn1ccc(NC(=O)c2ccc(Cl)cc2Cl)n1
16	O=C(Nc1cccnc1)OCc1ccccc1
17	O=C(Nc1ccc(Cl)c(Cl)c1)OCc1cccnc1
18	CC(=O)N(C)C[C@@H]1Oc2ncc(-c3ccccc3C)cc2C(=O)N([C@@H](C)CO)C[C@@H]1C
assay / compound	13	14	15	16	17	18
esBAF inh	67.7*	1.1	30.4	30.9	53.3*	4.3
Wnt bcat act	16.4	.	34.9*	-0.3	17.9	.
UUG fidelity	-1.9	-5.8	-21.1	-16.5	-7.7	-26.2
MITF act	37.3	.	?	.	85.9*	.
miR122 inh	-7.9	-8.8[16.7 µM]	.	.	-1.3	-0.7[16.7 µM]
PglD inh	-2.5	1.1	1.5	3.2	-2.1	2.4

19	Cc1ccc(S(=O)(=O)NN=Cc2ccccc2Cl)cc1
20	Cc1nn2c(-c3ccccc3)nnc2c2ccccc12
21	Cc1nn2c(-c3cccc(NC(=O)c4ccco4)c3)nnc2c2ccccc12
22	CCCOc1ccc(C(=O)CCNc2cccc(Cl)c2)cc1
23	Cc1ccc(NCCC(=O)c2ccccc2)cc1Cl
24	Cc1ccc(NC(=O)C(OC(=O)c2ccc(F)cc2)c2ccccc2)cc1Cl (stereo not drawn)
assay / compound	19	20	21	22	23	24
esBAF inh	-5.5	51.9*	11.4	2.8	59.6*	.
Wnt bcat act	33.5*	.	-1.6	-3.2	1.0	3.0
UUG fidelity	-6.0	-10.7	-11.0	-3.6	1.1	-27.0
MITF act	.	.	.	20.4	20.7	0.4
miR122 inh	3.4	-9.6	-12.3	3.2	.	137.2*
PglD inh	-2.2	-1.6	2.4	-5.3	4.7	18.7

25	COc1ccc(C(=O)CNc2cccc(F)c2)cc1
26	COc1ccc(C(=O)CCNc2cccc(Cl)c2)cc1
27	Cc1ccc(NCC(=O)c2ccccc2)cc1Cl
28	CN(Cc1cc(-c2ccccc2)on1)C(=O)c1cc(COc2c(F)cccc2F)on1
29	Cc1nc(CN(C)C(=O)c2cc(COc3c(F)cccc3F)on2)cs1
30	COC(=O)[C@H](Cc1ccccc1)NC(=O)c1cc(COc2c(F)cccc2F)on1
assay / compound	25	26	27	28	29	30
esBAF inh	63.3*	.	34.6	54.1*	-1.6	51.8*
Wnt bcat act	18.6	68.6*	.	1.5	0.5	18.0
UUG fidelity	-16.4	-22.5	-10.7	-18.4	6.2	-15.8
MITF act	71.7	74.2	11.9	50.4	17.4	46.5
miR122 inh	.	-11.8	-31.0	-1.5	-2.4	0.0
PglD inh	-2.1	-6.8	4.9	-2.4	2.7	5.4

31	CCCNC(=O)N(C)C[C@H]1Oc2ncc(C3=CCCC3)cc2C(=O)N([C@H](C)CO)C[C@H]1C
32	O=C1c2ccccc2-n2c1nc1ccccc1c2=O
33	O=c1c2ccccc2nc2n1-c1ccccc1CCC2
34	CN1C(=O)c2cc(NC(=O)C3CCCCC3)ccc2OC[C@@H]2O[C@@H](CC(=O)NCCc3ccncc3)CC[C@H]21
35	O=C(NCc1cccs1)c1ccncc1
36	CC1CCCN(c2ccc(C(=O)NCc3cccs3)cn2)C1 (stereo not drawn)
assay / compound	31	32	33	34	35	36
esBAF inh	0.2	44.5*	-0.3	-0.2	-1.4	94.3*
Wnt bcat act	.	-0.1	-2.6	.	0.3	.
UUG fidelity	-3.1	-9.4	-12.6	2.4	-97.9	-5.6
MITF act	.	.	.	.	.	79.3
miR122 inh	15.5[16.7 µM]	-2.2	-5.0	3.6[16.7 µM]	-5.3	-3.4
PglD inh	-5.0	-1.6	1.2	-0.4	-1.5	-6.8

Arranged by number of heavy atoms (lowest first): part of the list above.
35	O=C(NCc1cccs1)c1ccncc1
32	O=C1c2ccccc2-n2c1nc1ccccc1c2=O
31	CCCNC(=O)N(C)C[C@H]1Oc2ncc(C3=CCCC3)cc2C(=O)N([C@H](C)CO)C[C@H]1C
assay / compound	35	32	31
esBAF inh	-1.4	44.5*	0.2
Wnt bcat act	0.3	-0.1	.
UUG fidelity	-97.9	-9.4	-3.1
MITF act	.	.	.
miR122 inh	-5.3	-2.2	15.5[16.7 µM]
PglD inh	-1.5	-1.6	-5.0

More entries.
37	CC1CCCN(c2ccc(C(=O)NCc3ccccc3)cn2)C1 (stereo not drawn)
38	O=C(NCc1cccs1)c1ccc(N2CCCCC2)nc1
39	Cc1ccccc1S(=O)(=O)NCC[C@H]1CC[C@H](NC(=O)C2CC2)[C@H](CO)O1
40	CCC(=O)Nc1ccc2c(c1)C(=O)N(C)[C@@H]1CC[C@H](CC(=O)NCCc3ccncc3)O[C@H]1CO2
41	CCCNC(=O)C[C@@H]1CC[C@H]2[C@@H](COc3ccc(NC(=O)c4ccccc4)cc3C(=O)N2C)O1
42	Cc1cc(C(=O)Nc2ccc3c(c2)OCO3)no1
assay / compound	37	38	39	40	41	42
esBAF inh	34.2	81.3*	1.0	1.6	1.8	?
Wnt bcat act	4.0	.	.	.	.	22.3
UUG fidelity	-1.9	-8.5	3.3	-17.7	7.1	-17.5
MITF act	32.2	71.4	.	.	.	106.0*
miR122 inh	3.6	.	.	1.1[16.7 µM]	2.2[16.7 µM]	-3.2
PglD inh	-3.6	-2.0	-1.2	0.0	-2.6	2.7

43	CC(C)Cc1cc(C(=O)Nc2ccc3c(c2)OCO3)no1
44	O=C(Nc1ccc2c(c1)OCO2)c1cc(Cl)ccn1
45	Cc1ccc(NC(=O)c2cc(-c3ccc4c(c3)OCO4)on2)cc1C
46	Cc1cc(C)n(-c2ccc(C(=O)Nc3ccc4c(c3)OCO4)cc2)n1
47	COc1ccc(CN(C)C[C@H]2OCCCC[C@@H](C)Oc3ccc(NS(=O)(=O)c4c(C)noc4C)cc3C(=O)N([C@@H](C)CO)C[C@H]2C)cc1
48	C[C@H]1CN([C@@H](C)CO)C(=O)Cc2cc(NC(=O)CCCN(C)C)ccc2O[C@@H]1CN(C)C(=O)Nc1ccc2c(c1)OCO2
49	CO[C@@H]1CN(C)C(=O)c2ccc(NC(C)=O)cc2OC[C@@H](C)N(Cc2ccccc2F)C[C@H]1C
50	COc1ccc(C#Cc2ccc3c(c2)O[C@@H](CN(C)C(=O)CN2CCOCC2)[C@@H](C)CN([C@@H](C)CO)S3(=O)=O)cc1
assay / compound	43	44	45	46	47	48	49	50
esBAF inh	33.5	44.3*	6.2	67.8*	2.2	-1.5	-2.0	1.3
Wnt bcat act	58.4*	-1.2	3.0	9.1	.	.	.	.
UUG fidelity	-48.3	-29.9	-19.5	-12.2	25.6	.	.	.
MITF act	58.0	57.1	29.4	64.4	.	.	.	.
miR122 inh	0.5	2.6	.	-3.5	-11.5[16.7 µM]	20.2[16.7 µM]	.	-24.3[16.7 µM]
PglD inh	-1.4	3.9	-3.3	3.0	1.3	-2.4	1.2	-9.4
